# scFv variants of Ab-14 (heavy chain) against a SARS-CoV-2 spike peptide

The measurements come from Li et al. 2023 (doi:10.1038/s41467-023-39022-2) through the FLAb antibody collection.

The target is the same throughout: PDVDLGDISGINAS, from the HR2 region of SARS-CoV-2 spike.

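Phage display of a naive human antibody library on the peptide gave the parent. Designed CDR sequences, proposed from the first random library and measured here. Their group label is 14H_En_Gen (En: ensemble of fine-tuned language models; Gen: genetic algorithm). The assay is AlphaSeq: two haploid yeast populations carry antibody and antigen on their surface. Binding brings cells together so that they mate, and sequencing counts the barcode pairs among the diploids. Scores were corrected for input abundance and mapped to Kd with protein pairs of known affinity run in the same pool. There are six technical replicates.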

The variants keep the light chain, the linker and the frameworks of Ab-14 (scFv order VH, a (GGGGS)3 linker, VL).
VH: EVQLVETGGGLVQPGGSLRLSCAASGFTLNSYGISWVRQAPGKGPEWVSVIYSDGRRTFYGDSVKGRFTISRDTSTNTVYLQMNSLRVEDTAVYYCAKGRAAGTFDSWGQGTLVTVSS
VL: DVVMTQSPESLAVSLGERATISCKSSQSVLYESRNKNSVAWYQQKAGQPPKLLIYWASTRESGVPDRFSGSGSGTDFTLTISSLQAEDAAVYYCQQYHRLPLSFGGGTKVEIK

Each variant is given by its three heavy chain CDRs, as the data file delimits them; those of the parent are GFTLNSYGIS, VIYSDGRRTFYGDSVK, GRAAGTFDS.
Scale: log10 of Kd in nM, estimated from mating counts; low values are strong binders.
A pair that was not seen in that replicate is written "n.d."; this usually means weak binding, but a binder can also be missed.
The range of this assay differs from that of the first round, and the authors advise against merging the two.

CDR-H1,CDR-H2,CDR-H3,"log10 Kd, replicates",signal with controls
GFDLNEYGIS,VIYADGRRTAYSDSVK,GENAGTFDM,-0.55 -0.67 -0.66 -0.63 -0.69 -0.39,0/18
GFDLNEYGIS,VIYADGKRTAYADNVK,GQVAGTFDL,-0.30 -1.81 -1.96 -2.37 -1.54 -2.03,0/18
GFDLNEYGIS,VIYADGMRTAYSDSVK,GANAGTFDL,-0.43 -0.78 -0.84 -0.67 -0.81 -0.47,0/18
GFDLNEYGIS,VIYADGVRKAYADSVK,GEVAGTFDI,n.d. 2.04 1.91 3.20 2.39 2.17,0/18
GFDLNEYGIS,VIYADGRRTAYSDSVK,GTNAGTFDV,-0.43 -0.63 -0.42 -0.27 -1.06 -0.48,0/18
GFDLNEYGIS,VIYADGMRTAYADSVK,GQNAGTFDI,0.20 -0.44 -0.29 0.13 -0.21 -0.44,0/18
GFDLNEYGIS,VIYADGVRTAYANSVK,GETAGTFDV,0.58 1.04 0.35 0.48 0.34 0.22,0/18
GFDLNEYGIS,VIYADGMRTAYIDSVK,GNTAGTFDV,-0.30 -0.30 -0.03 -0.31 -0.35 -0.53,0/18
GFDLDEYGIS,VIYADGQRTYYADSVK,GNNAGTFDV,0.00 0.10 0.05 -0.28 0.12 0.01,0/18
GFDLEDYGIS,VIYADGMRTAYSDSVK,GNQAGTFDV,-0.05 -0.31 -0.44 -0.38 -0.44 -0.25,1/18 (2.04)
GFDLNEYGIS,VIYADGSRTAYADSVK,GEVAGTFDT,0.81 0.70 0.68 1.37 1.40 0.37,0/18
GFDLNEYGIS,VIYADGMRTSYADDVK,GENAGTFDV,-0.09 -0.37 0.24 -0.25 -0.26 -0.03,0/18
GFDLDEYGIS,VIYADGMRTAYADSVK,GKVAGTFDV,-0.16 -0.41 -0.50 -0.71 -0.31 -0.53,0/18
GFDLDEYGIS,VIYADGKRTAYADSVK,GNNAGTFDT,-0.29 -0.41 -0.30 -0.27 -0.43 -0.03,0/18
GFDLDEYGIS,VIYADGMRTAYADSVK,GQTAGTFDI,-0.24 -0.28 -0.40 0.08 0.09 -0.66,0/18
GFDLNEYGIS,VIYADGKRTAYSDSVK,GGNAGTFDI,0.28 0.05 -0.44 0.07 -0.38 -0.19,1/18 (1.94)
GFDLNEYGIS,VIYADGQRTAYADSVK,GSNAGTFDL,-0.79 -0.44 -0.61 -0.83 -0.45 0.08,0/18
GFDLNEYGIS,VIYADGRRTFYSDSVK,GNVAGTFDV,-1.31 -1.22 -1.49 -1.24 -1.34 -1.39,0/18
GFDLDEYGIS,VIYADGMRTAYTDNVK,GEVAGTFDV,n.d. -0.63 -0.86 -0.03 -0.94 -0.31,0/18
GFDLDEYGIS,VIYADGRRTAYADSVK,GGNAGTFDI,-0.22 -0.60 -0.55 -0.48 -1.00 -0.01,0/18
GFDLNEYGIS,VIYADGKRTAYADDVK,GNNAGTFDM,-0.24 0.18 -0.47 -0.56 -0.35 -0.27,0/18
GFDLNEYGIS,VIYADGMRTAYANSVK,GENAGTFDI,-0.09 0.06 0.25 0.08 0.13 0.55,0/18
GFDLNEYGIS,VIYADGKRTAYADSVK,GNHAGTFDV,-0.95 -1.13 -1.35 -1.43 -1.01 -0.92,0/18
GFDLNEYGIS,VIYADGMRTQYADDVK,GENAGTFDV,0.23 -0.24 -0.96 0.44 -0.48 -0.50,0/18
GFDLNEYGIS,VIYADGMRTAYADTVK,GNVAGTFDI,0.37 0.73 -0.69 -0.35 -0.44 0.43,0/18
GFDLDEYGIS,VIYADGMRTAYTDSVK,GEVAGTFDQ,0.05 -0.54 -0.13 0.02 -0.51 -0.63,0/18
GFDLDEYGIS,VIYADGVRTFYADSVK,GNVAGTFDV,-0.27 -0.38 -0.47 -0.66 -0.69 -0.11,1/18 (1.36)
GFNLDEYGIS,VIYADGQRTAYADSVK,GENAGTFDV,0.06 -0.60 -0.37 -0.29 -0.17 -0.06,0/18
GFDLEEYGIS,VIYADGKRTAYADSVK,GNNAGTFDV,-0.45 -0.04 -0.28 -0.29 -0.13 -0.54,0/18
GFDLNEYGIS,VIYADGKRTAYADNVK,GEVAGTFDQ,-0.08 -0.31 -0.63 -0.10 -0.09 -0.41,0/18
GFDLNEYGIS,VIYADGMRTAYADSVK,GVNAGTFDV,0.66 1.47 0.60 1.10 0.60 1.58,0/18
GFDLNEYGIS,VIYADGVRTFYADSVK,GQNAGTFDV,0.01 0.10 0.08 -0.36 -0.15 0.19,1/18 (2.69)
GFDLNEYGIS,VIYADGSRTFYADSVK,GNVAGTFDM,-0.47 -0.47 -0.83 -0.88 -0.94 -0.68,0/18
GFDLDEYGIS,VIYADGMRTAYADDVK,GNVAGTFDI,0.02 -0.38 -0.45 -0.63 -0.54 -0.33,1/18 (2.33)
GFDLNEYGIS,VIYADGQRTAYADSVK,GQVAGTFDQ,0.12 -0.62 -0.14 -0.93 -0.52 -0.87,0/18
GFDLNEYGIS,VIYADGQRTAYADDVK,GQVAGTFDV,-0.35 -0.87 -1.16 -0.91 -0.83 -0.67,0/18
GFDLNEYGIS,VIYADGLRTAYVDSVK,GNQAGTFDV,-1.04 -0.57 -1.08 -0.36 -0.76 -0.46,0/18
GFDLNEYGIS,VIYADGVRTSYADSVK,GENAGTFDM,1.09 0.22 -0.02 0.32 0.61 0.69,0/18
GFDLNEYGIS,VIYADGRRTAYADSVK,GQTAGTFDV,-0.05 -0.27 -0.30 -0.43 -0.39 -0.23,0/18
GFDLNEYGIS,VIYADGSRKAYADSVK,GNVAGTFDL,0.27 0.01 -0.62 -0.24 -0.74 -0.16,0/18
GFDLNEYGIS,VIYADGMRTAYSDAVK,GNVAGTFDV,-0.70 -0.26 -0.66 -0.72 -0.49 -0.43,0/18
GFDLNEYGIS,VIYADGMRTYYADSVK,GNQAGTFDM,-0.46 -0.58 -0.64 -0.75 -0.68 -0.36,1/18 (1.83)
GFDLNEYGIS,VIYADGKRTVYADSVK,GETAGTFDV,0.17 -0.17 -0.38 -0.42 -0.28 -0.53,0/18

Excerpt, the final 6 entries:

{"CDR-H1": "GFDLNEYGIS", "CDR-H2": "VIYADGVRTSYADSVK", "CDR-H3": "GENAGTFDM", "log10 Kd, replicates": "1.09 0.22 -0.02 0.32 0.61 0.69", "signal with controls": "0/18"}
{"CDR-H1": "GFDLNEYGIS", "CDR-H2": "VIYADGRRTAYADSVK", "CDR-H3": "GQTAGTFDV", "log10 Kd, replicates": "-0.05 -0.27 -0.30 -0.43 -0.39 -0.23", "signal with controls": "0/18"}
{"CDR-H1": "GFDLNEYGIS", "CDR-H2": "VIYADGSRKAYADSVK", "CDR-H3": "GNVAGTFDL", "log10 Kd, replicates": "0.27 0.01 -0.62 -0.24 -0.74 -0.16", "signal with controls": "0/18"}
{"CDR-H1": "GFDLNEYGIS", "CDR-H2": "VIYADGMRTAYSDAVK", "CDR-H3": "GNVAGTFDV", "log10 Kd, replicates": "-0.70 -0.26 -0.66 -0.72 -0.49 -0.43", "signal with controls": "0/18"}
{"CDR-H1": "GFDLNEYGIS", "CDR-H2": "VIYADGMRTYYADSVK", "CDR-H3": "GNQAGTFDM", "log10 Kd, replicates": "-0.46 -0.58 -0.64 -0.75 -0.68 -0.36", "signal with controls": "1/18 (1.83)"}
{"CDR-H1": "GFDLNEYGIS", "CDR-H2": "VIYADGKRTVYADSVK", "CDR-H3": "GETAGTFDV", "log10 Kd, replicates": "0.17 -0.17 -0.38 -0.42 -0.28 -0.53", "signal with controls": "0/18"}

As a blank, each scFv also met three strains without target: over all heavy chain designs, 1% of these pairings were detected, typically at 2.08 and seldom below 0.84. The control count says in how many pairings with the empty strains this scFv gave a signal, with their mean in brackets.
In the paper, a design with two or fewer of six values counts as a poor binder.
Of ten entries with the parent sequence, four were seen in most replicates (averages 0.34 to 2.37), three in one and three in none, so single entries are noisy.